PMC7580997 (Journal of medicinal chemistry, 2019)

Amino acid sequences for entries named in this document (tags omitted). Residues count along the entry.
UniProt P98170, 253-347: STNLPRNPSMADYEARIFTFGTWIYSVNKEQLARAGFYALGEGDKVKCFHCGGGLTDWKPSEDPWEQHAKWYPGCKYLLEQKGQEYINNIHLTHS

Target: BIR3 domain of XIAP (Homo sapiens, UniProt P98170)
Conditions: regardless of the incubation times of either 2 h or 6 h

CN[C@@H](C)C(=O)N[C@H]1CN(C(=O)CC(C)C)CC[C@H]2CC[C@@H](C(=O)NC(c3ccccc3)c3ccccc3)N2C1=O [AT406]
XIAP-BIR3 ΔTm: < 20 °C
